# Antibody variant affinities, Ab-14 light chain, assay 1

All variants were tested on one target, the spike HR2 peptide PDVDLGDISGINAS (SARS-CoV-2).

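Variants in AAYL50 differ from the parent at up to three CDR positions; double and triple changes were sampled at random. The scFvs were displayed on barcoded MATa yeast, the peptide on MATalpha yeast. Mating (16 h, 30 °C) was followed by selection of diploids and sequencing of their barcodes. Scores were corrected for input abundance and mapped to Kd with protein pairs of known affinity run in the same pool. There are three technical replicates.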

Each scFv is VH, a 15-residue (Gly4Ser)3 linker, VL, as in the parent Ab-14, and differs from it in the CDRs of the light chain only.
VH: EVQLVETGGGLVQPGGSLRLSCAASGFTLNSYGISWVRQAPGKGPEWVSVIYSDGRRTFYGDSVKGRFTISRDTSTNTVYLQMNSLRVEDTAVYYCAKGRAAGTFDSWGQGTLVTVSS
VL: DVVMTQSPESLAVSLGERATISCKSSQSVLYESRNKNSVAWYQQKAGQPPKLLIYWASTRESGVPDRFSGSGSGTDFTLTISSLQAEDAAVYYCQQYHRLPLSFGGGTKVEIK

Each variant is given by its three light chain CDRs, as the data file delimits them; those of the parent are KSSQSVLYESRNKNSVA, WASTRES, QQYHRLPLS.
All variants listed here change S38 of the VL, counted from its first residue.
The Kd shown is the geometric mean over detected replicates; a lower Kd is a better binder.
An entry "not detected" has no value in the source: the pair was not observed among the diploids in any replicate. This suggests poor binding but is not conclusive.
As a blank, each scFv also met three strains without target: over library AAYL50, 18% of these pairings were detected, typically at 15 µM and seldom below 970 nM. For each scFv, signals with the empty controls are counted beside the result.
For reference, the parent read 4.4 nM as the reference entry and 48 nM as a member of this library.

| CDR-L1 | CDR-L2 | CDR-L3 | Kd (apparent) | seen in | signal with controls |
|---|---|---|---|---|---|
| KSSQSVLYESRNKNDVP | WASTDES | QQYHRLPLS | 76 µM | 1/3 | 3/9 |
| KSSQSVLYESRNKNMVA | WASTRES | QQYWLLPLS | 240 nM | 3/3 | 1/9 |
| KSSSSVLYESRNKNYVA | WASTRES | QQYHRLPHS | not detected | 0/3 | 1/9 |
| KSSQSVLYESRNKNQVA | WASTRED | QQYHRLSLS | not detected | 0/3 | 2/9 |
| KSSQSVLYESRNKNAVA | WASTREK | QQYHRLPLH | 960 nM | 1/3 | 0/9 |
| KSSQSVLYESRNKNWVA | WAPTRES | QQYHSLPLS | not detected | 0/3 | 2/9 |
| KKSQSVLYESRNKNCQA | WASTRES | QQYHRLPLS | 49 µM | 2/3 | 3/9 |
| KSSQSVLYESRNKNLVA | WASTRES | QQYHRLPLS | not detected | 0/3 | 1/9 |
| KSSQSVLYESRNKNTVI | WASTRES | QQYHRDPLS | not detected | 0/3 | 1/9 |
| KSSQSAKYESRNKNVVA | WASTRES | QQYHRLPLS | not detected | 0/3 | 0/9 |
| KSSQSVLYESRNVNFVA | WASTRES | QQYHRLPQS | not detected | 0/3 | 0/9 |
| KSSQSVLYESRNKNECA | WASTRES | QMYHRLPLS | not detected | 0/3 | 0/9 |
| KSSNSVLYESRNKNAVA | WASTRES | QQSHRLPLS | 24 nM | 3/3 | 2/9 |
| KSSQSVLYESRNKNNVA | WASTRES | RNYHRLPLS | 23 µM | 2/3 | 6/9 |
| KSSQSVLYESRPKNMVA | WASTRES | QQYHRLGLS | not detected | 0/3 | 1/9 |
| KSSQSVLYESRNKNAVA | WASTYES | QQYHRLPLS | 2.2 µM | 2/3 | 0/9 |
| KSSQSELYESRNKNLVA | WASTRES | QQYHRPPLS | 52 µM | 3/3 | 3/9 |
| KSSQSVLYKSRNKNPVA | WASTRES | QQYMRLPLS | 1.9 µM | 3/3 | 2/9 |
| KSSQSVLYTSRNKNGVA | WAGTRES | QQYHRLPLS | 36 µM | 1/3 | 0/9 |
| KSSQSVLYESRNKNQVA | WASKRES | PQYHRLPLS | not detected | 0/3 | 0/9 |
| KSSQSVLYESRNKNQVA | WHSTREI | QQYHRLPLS | 20 µM | 2/3 | 2/9 |
| KSSQSVLYESRNKNMGA | WASTREV | QQYHRLPLS | 16 µM | 2/3 | 3/9 |
| KSSQSWLYESRNKCFVA | WASTRES | QQYHRLPLS | 74 µM | 2/3 | 5/9 |
| KSSQSVLLASRNKNTVA | WASTRES | QQYHRLPLS | not detected | 0/3 | 0/9 |
| KQSQSVLYESRNKNYVA | WASTRES | QQYHRLPLS | 660 nM | 3/3 | 5/9 |
| KSQQSVLYESRNLNWVA | WASTRES | QQYHRLPLS | not detected | 0/3 | 1/9 |
| KSSQSVLYESRNKNTVA | WASTRES | WQYHRLPLS | not detected | 0/3 | 3/9 |
| KSSGSVLYESRHKNPVA | WASTRES | QQYHRLPLS | 76 nM | 3/3 | 1/9 |
| KLSQSVLYESREKNNVA | WASTRES | QQYHRLPLS | 430 pM | 3/3 | 2/9 |
| KSSQSVLYESRNKNRVA | WASTRES | QQYSRLPLS | 43 nM | 2/3 | 0/9 |
| KSSQSVLYESRNKNLVA | WASTRNS | CQYHRLPLS | not detected | 0/3 | 0/9 |
| KSSQSVLYESRNKNNVA | WASTRES | QMYRRLPLS | 66 nM | 3/3 | 0/9 |
| KSSHSVLYESRNKNQVA | WHSTRES | QQYHRLPLS | 3.8 µM | 1/3 | 2/9 |
| SSSQSVLYESRNKNPVA | WASTRES | QQYHRPPLS | 290 nM | 3/3 | 2/9 |
| KSSQSVLYESRRKNWVQ | WASTRES | QQYHRLPLS | not detected | 0/3 | 0/9 |
| KFSQSVLYESRNKNRVA | WASTRES | QQYHRLPLQ | 12 nM | 3/3 | 1/9 |
| KSSQSILYESRNKNCVA | WASTRES | QQYHRLPLS | 980 nM | 3/3 | 1/9 |
| KSSQSVLYESRNKNRVA | WASTREA | QQYCRLPLS | 70 µM | 3/3 | 6/9 |
| SSSQSVCYESRNKNDVA | WASTRES | QQYHRLPLS | 530 nM | 3/3 | 1/9 |
| KSSQSVLYESRNKNAVA | WASTRES | QQTHRIPLS | 12 µM | 3/3 | 1/9 |
| KSSRSVLYESRNNNTVA | WASTRES | QQYHRLPLS | 19 µM | 2/3 | 3/9 |
| KSSQSVHYESRNDNTVA | WASTRES | QQYHRLPLS | 560 nM | 3/3 | 3/9 |
| KSSQSVLYESRNKNQVA | WASTREW | QQYHTLPLS | 370 nM | 3/3 | 8/9 |
| KSSQSVLYESRNKNTVA | WTSTPES | QQYHRLPLS | 2.4 µM | 1/3 | 0/9 |
| KSSQSVLYESRNKNEVA | WAATRES | QAYHRLPLS | 110 µM | 3/3 | 4/9 |
| KSTQSVLYESRNKKEVA | WASTRES | QQYHRLPLS | 280 nM | 3/3 | 0/9 |
| KSSQSVLYESRNKNGVW | WASTRES | QQYHRLPLS | 15 µM | 2/3 | 1/9 |
| KSSQSVVYESRNKNGVA | WASTRES | QDYHRLPLS | 26 nM | 3/3 | 0/9 |
| KSSQSPLYESRNKNWVA | WASTRES | PQYHRLPLS | 32 µM | 1/3 | 1/9 |
| KSSQSVLYESRNKNFVA | WASTRES | QQYHRLPLS | not detected | 0/3 | 0/9 |
| KSSGSVLYESRNKNMVA | WASTRES | QQYHSLPLS | 6.6 µM | 3/3 | 6/9 |
| KSKQSVLYESRNKNIVA | WWSTRES | QQYHRLPLS | 8.1 µM | 1/3 | 1/9 |
| KSSQSVLYESRNKNKVA | WASLRES | QGYHRLPLS | not detected | 0/3 | 0/9 |
| KSSQSVLYPSRNKNPVA | WASTREG | QQYHRLPLS | 600 nM | 3/3 | 3/9 |
| KSSQSVEYESRNKNHVA | WASTRES | QQYHPLPLS | 78 nM | 3/3 | 0/9 |
| KSSQSVLYESRNKNIVD | WASTREL | QQYHRLPLS | 800 nM | 1/3 | 0/9 |
| KSIQSVLYESRNKNEVA | WASTRES | QQYHRSPLS | 9.8 µM | 2/3 | 5/9 |
| KSSQSVLYESRNKNCVA | WASTRES | QQPHRLPLS | not detected | 0/3 | 0/9 |
| KSSQSVLYESRNKNHWA | WASTRES | QQYLRLPLS | 5.7 µM | 3/3 | 5/9 |
| KSSQSVLYESRNKNWVM | WASTREG | QQYHRLPLS | not detected | 0/3 | 2/9 |
| KSSQSVLVESRNKNLVA | WASTRES | RQYHRLPLS | not detected | 0/3 | 2/9 |
| KRSQSVLYESRNKNAVA | WASTRES | QQMHRLPLS | 2.5 µM | 3/3 | 3/9 |
| KGSQSVLYESRNKNGVA | WASTRES | QQYHRMPLS | not detected | 0/3 | 2/9 |
| KSSQSVLYESRSKNKEA | WASTRES | QQYHRLPLS | 11 µM | 1/3 | 2/9 |
| KSHQSVLYESRNKKYVA | WASTRES | QQYHRLPLS | 1.5 µM | 1/3 | 0/9 |
| KSSQSVLYESRNKNTVA | WAHTRES | QQYHRLMLS | 210 µM | 1/3 | 2/9 |
| KSSQSVLYESRNKNNVA | WASTREF | QQYHRLWLS | not detected | 0/3 | 0/9 |
| KSSQSVLYESRNKNHVA | WADTRES | QQYHRLPLK | 11 µM | 1/3 | 1/9 |

11 of these entries, quoted again:

{"CDR-L1": "KSSQSVLYESRNKNTVA", "CDR-L2": "WTSTPES", "CDR-L3": "QQYHRLPLS", "Kd (apparent)": "2.4 µM", "seen in": "1/3", "signal with controls": "0/9"}
{"CDR-L1": "KSSQSVLYESRNKNAVA", "CDR-L2": "WASTRES", "CDR-L3": "QQTHRIPLS", "Kd (apparent)": "12 µM", "seen in": "3/3", "signal with controls": "1/9"}
{"CDR-L1": "KSSQSVLYESRNKNLVA", "CDR-L2": "WASTRNS", "CDR-L3": "CQYHRLPLS", "Kd (apparent)": "not detected", "seen in": "0/3", "signal with controls": "0/9"}
{"CDR-L1": "KSSGSVLYESRHKNPVA", "CDR-L2": "WASTRES", "CDR-L3": "QQYHRLPLS", "Kd (apparent)": "76 nM", "seen in": "3/3", "signal with controls": "1/9"}
{"CDR-L1": "KSSQSVLYESRNKNCVA", "CDR-L2": "WASTRES", "CDR-L3": "QQPHRLPLS", "Kd (apparent)": "not detected", "seen in": "0/3", "signal with controls": "0/9"}
{"CDR-L1": "KSSQSVLYESRNKNQVA", "CDR-L2": "WASKRES", "CDR-L3": "PQYHRLPLS", "Kd (apparent)": "not detected", "seen in": "0/3", "signal with controls": "0/9"}
{"CDR-L1": "KSSQSVLYESRNKNEVA", "CDR-L2": "WAATRES", "CDR-L3": "QAYHRLPLS", "Kd (apparent)": "110 µM", "seen in": "3/3", "signal with controls": "4/9"}
{"CDR-L1": "KSSQSVLYESRNKNDVP", "CDR-L2": "WASTDES", "CDR-L3": "QQYHRLPLS", "Kd (apparent)": "76 µM", "seen in": "1/3", "signal with controls": "3/9"}
{"CDR-L1": "KSSQSVLYESRNKNTVI", "CDR-L2": "WASTRES", "CDR-L3": "QQYHRDPLS", "Kd (apparent)": "not detected", "seen in": "0/3", "signal with controls": "1/9"}
{"CDR-L1": "KSSQSVLYESRNKNKVA", "CDR-L2": "WASLRES", "CDR-L3": "QGYHRLPLS", "Kd (apparent)": "not detected", "seen in": "0/3", "signal with controls": "0/9"}
{"CDR-L1": "KSSQSVLYESRNKNRVA", "CDR-L2": "WASTREA", "CDR-L3": "QQYCRLPLS", "Kd (apparent)": "70 µM", "seen in": "3/3", "signal with controls": "6/9"}

Source: Engelhart et al. 2022 (doi:10.1038/s41597-022-01779-4), MIT Lincoln Laboratory and A-Alpha Bio; data file from the FLAb repository.